In US20120329716A1 (UNIVERSITY OF MANITOBA, published 2012):

Molecular target: Purified human recombinant renin (human, UniProt P00797 67-406)
Test: cell-based or functional assay

B1: SEQ ID NO. 1 (peptide)
peptide: IR
RENIN INHIBITION %: 49.1%

B2: SEQ ID NO. 10 (peptide)
peptide: RF
RENIN INHIBITION %: 6.35%

B3: SEQ ID NO. 11 (peptide)
peptide: FK
RENIN INHIBITION %: 8.92%

B4: SEQ ID NO. 12 (peptide)
peptide: FQ
RENIN INHIBITION %: 8.64%

B5: SEQ ID NO. 2 (peptide)
peptide: KF
RENIN INHIBITION %: 28.8%

B6: SEQ ID NO. 27 (peptide)
peptide: IW
RENIN INHIBITION %: 69.2%

B7: SEQ ID NO. 28 (peptide)
peptide: LW
RENIN INHIBITION %: 37.1%

B8: SEQ ID NO. 3 (peptide)
peptide: EF
RENIN INHIBITION %: 22.4%

B9: SEQ ID NO. 5 (peptide)
peptide: NR
RENIN INHIBITION %: 25.4%

B10: SEQ ID NO. 7 (peptide)
peptide: SF
RENIN INHIBITION %: 15.9%

B11: SEQ ID NO. 8 (peptide)
peptide: YR
RENIN INHIBITION %: 15.1%

B12: SEQ ID NO. 9 (peptide)
peptide: FT
RENIN INHIBITION %: 20.4%
